Experimental data published in ChEMBL document CHEMBL5375969, “A Novel Bifunctional μOR Agonist and σ1R Antagonist with Potent Analgesic Responses and Reduced Adverse Effects” (2023).

The chains behind the UniProt entries cited, without tags or fusion partners. Residues count along the entry.
UniProt P35372, whole entry: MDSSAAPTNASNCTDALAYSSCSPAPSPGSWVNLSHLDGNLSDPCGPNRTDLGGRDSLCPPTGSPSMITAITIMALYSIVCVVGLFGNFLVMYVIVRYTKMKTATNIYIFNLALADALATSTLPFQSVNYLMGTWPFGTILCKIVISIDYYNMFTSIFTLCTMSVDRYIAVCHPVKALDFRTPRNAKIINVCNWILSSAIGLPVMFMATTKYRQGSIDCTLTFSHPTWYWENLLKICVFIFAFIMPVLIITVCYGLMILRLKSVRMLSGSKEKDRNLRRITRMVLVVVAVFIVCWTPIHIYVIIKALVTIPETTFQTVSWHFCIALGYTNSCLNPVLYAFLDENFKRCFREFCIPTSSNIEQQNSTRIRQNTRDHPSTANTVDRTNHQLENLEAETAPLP
UniProt Q60492, whole entry: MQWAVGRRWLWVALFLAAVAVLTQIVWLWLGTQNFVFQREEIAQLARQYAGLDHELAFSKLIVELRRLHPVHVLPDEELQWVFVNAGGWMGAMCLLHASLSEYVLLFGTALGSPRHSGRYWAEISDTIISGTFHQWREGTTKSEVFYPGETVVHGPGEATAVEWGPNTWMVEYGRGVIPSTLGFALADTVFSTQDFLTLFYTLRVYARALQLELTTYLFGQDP
UniProt P11712, whole entry: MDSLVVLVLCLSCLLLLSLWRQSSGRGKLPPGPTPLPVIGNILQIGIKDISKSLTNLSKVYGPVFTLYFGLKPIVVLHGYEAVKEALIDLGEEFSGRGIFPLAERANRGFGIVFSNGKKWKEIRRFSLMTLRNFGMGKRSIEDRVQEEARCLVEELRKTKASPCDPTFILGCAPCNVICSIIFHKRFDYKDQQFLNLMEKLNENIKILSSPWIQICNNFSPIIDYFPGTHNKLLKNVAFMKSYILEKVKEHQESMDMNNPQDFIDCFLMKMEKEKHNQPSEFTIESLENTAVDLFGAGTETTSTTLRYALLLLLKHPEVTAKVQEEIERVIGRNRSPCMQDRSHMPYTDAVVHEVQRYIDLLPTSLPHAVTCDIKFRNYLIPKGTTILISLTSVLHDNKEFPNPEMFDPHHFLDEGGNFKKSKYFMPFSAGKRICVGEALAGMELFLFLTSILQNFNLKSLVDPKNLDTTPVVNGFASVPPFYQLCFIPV
UniProt P08684, 2-503 limits assumed: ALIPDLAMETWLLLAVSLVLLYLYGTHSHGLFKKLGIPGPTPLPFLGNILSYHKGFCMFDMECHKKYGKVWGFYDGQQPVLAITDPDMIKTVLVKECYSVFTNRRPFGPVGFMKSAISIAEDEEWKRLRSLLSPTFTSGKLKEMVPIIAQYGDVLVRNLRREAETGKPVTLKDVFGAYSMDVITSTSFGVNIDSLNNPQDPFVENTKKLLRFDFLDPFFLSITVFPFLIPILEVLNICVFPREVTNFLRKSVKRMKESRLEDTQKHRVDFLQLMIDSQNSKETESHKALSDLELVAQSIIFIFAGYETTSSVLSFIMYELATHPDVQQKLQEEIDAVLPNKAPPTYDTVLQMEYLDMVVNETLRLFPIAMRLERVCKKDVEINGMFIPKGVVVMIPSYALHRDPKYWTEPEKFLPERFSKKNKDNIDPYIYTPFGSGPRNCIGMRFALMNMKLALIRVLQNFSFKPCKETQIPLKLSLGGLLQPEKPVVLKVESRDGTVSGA
UniProt P35367, whole entry: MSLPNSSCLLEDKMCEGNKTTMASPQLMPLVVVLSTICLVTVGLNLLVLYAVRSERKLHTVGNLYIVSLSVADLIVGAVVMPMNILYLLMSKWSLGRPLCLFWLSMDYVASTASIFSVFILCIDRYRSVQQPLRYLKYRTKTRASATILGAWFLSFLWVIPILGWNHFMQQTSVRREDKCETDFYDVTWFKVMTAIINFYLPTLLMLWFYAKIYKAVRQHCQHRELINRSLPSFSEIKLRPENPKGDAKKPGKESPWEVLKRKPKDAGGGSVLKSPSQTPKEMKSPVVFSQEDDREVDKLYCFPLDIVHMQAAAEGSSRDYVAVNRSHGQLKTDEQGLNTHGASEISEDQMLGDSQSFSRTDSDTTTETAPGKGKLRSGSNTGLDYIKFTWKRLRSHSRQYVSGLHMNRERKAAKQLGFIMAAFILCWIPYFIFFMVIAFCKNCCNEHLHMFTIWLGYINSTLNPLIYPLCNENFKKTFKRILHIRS
UniProt P41595, whole entry: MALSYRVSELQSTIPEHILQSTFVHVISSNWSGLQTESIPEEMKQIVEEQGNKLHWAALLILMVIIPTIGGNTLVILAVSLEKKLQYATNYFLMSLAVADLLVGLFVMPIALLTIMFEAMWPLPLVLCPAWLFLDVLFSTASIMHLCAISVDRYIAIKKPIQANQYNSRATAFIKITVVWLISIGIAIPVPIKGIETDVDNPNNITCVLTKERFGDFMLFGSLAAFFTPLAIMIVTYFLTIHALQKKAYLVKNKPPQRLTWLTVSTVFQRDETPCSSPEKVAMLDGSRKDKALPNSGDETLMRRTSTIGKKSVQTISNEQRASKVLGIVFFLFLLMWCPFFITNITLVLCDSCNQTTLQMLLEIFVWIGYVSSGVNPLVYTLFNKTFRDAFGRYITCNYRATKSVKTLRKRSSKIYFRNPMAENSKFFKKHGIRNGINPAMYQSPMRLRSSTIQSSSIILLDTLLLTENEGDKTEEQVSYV
UniProt P35348, whole entry: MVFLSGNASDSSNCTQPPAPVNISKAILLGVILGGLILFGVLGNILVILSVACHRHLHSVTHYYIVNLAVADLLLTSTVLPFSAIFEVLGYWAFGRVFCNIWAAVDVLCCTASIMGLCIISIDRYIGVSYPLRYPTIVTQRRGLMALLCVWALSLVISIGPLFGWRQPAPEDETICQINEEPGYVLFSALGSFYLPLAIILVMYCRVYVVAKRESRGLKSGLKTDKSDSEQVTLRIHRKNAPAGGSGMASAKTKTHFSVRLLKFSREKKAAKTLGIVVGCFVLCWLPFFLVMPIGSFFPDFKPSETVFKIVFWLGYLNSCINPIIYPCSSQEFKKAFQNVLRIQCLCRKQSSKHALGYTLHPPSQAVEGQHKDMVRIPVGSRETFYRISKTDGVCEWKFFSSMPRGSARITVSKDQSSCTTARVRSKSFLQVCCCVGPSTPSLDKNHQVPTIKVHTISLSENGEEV
UniProt P08913, whole entry: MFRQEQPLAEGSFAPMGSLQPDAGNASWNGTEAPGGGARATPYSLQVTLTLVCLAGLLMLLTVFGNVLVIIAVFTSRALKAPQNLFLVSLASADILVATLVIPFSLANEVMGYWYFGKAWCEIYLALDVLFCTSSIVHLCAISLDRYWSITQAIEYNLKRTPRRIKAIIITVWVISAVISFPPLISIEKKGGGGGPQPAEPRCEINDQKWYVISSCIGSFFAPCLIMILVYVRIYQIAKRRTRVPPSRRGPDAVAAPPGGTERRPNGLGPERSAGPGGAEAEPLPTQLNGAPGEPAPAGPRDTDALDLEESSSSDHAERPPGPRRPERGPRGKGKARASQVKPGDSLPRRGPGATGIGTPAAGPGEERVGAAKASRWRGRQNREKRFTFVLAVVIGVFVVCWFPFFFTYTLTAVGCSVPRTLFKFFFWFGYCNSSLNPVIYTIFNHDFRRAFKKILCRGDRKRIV
UniProt P21728, whole entry: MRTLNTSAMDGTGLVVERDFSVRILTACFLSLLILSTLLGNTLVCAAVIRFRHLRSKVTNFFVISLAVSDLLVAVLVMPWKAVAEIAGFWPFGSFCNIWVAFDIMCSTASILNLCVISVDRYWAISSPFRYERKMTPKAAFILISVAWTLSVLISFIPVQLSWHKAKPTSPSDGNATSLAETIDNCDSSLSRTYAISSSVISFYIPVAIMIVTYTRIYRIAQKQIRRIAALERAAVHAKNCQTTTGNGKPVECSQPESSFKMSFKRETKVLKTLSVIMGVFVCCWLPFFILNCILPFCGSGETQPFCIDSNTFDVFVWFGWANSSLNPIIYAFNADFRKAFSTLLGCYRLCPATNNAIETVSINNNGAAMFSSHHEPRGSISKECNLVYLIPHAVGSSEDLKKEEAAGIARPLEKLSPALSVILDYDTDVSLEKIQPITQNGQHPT
UniProt P25021, whole entry: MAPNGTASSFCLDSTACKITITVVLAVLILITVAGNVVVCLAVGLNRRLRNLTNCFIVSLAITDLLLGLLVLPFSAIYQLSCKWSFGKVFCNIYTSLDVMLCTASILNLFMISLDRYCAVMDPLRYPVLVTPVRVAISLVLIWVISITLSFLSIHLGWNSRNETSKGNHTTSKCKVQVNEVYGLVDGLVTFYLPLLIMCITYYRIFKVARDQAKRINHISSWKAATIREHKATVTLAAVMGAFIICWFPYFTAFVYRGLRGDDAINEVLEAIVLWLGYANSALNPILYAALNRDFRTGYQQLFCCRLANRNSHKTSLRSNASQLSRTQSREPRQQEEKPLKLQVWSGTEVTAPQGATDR
UniProt P21554, whole entry: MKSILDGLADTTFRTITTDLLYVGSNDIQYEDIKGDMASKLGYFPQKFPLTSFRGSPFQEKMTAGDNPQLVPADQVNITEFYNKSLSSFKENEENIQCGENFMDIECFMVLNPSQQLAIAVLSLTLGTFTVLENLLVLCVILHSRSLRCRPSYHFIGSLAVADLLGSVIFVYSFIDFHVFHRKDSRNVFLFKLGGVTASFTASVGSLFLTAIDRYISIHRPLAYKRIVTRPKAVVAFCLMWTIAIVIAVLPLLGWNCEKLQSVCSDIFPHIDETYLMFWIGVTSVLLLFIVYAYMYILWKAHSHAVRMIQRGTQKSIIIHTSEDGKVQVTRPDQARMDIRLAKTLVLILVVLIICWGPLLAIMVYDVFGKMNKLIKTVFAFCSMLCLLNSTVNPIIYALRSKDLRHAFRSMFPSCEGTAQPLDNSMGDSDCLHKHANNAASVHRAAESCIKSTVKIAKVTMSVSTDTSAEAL
UniProt P34972, whole entry: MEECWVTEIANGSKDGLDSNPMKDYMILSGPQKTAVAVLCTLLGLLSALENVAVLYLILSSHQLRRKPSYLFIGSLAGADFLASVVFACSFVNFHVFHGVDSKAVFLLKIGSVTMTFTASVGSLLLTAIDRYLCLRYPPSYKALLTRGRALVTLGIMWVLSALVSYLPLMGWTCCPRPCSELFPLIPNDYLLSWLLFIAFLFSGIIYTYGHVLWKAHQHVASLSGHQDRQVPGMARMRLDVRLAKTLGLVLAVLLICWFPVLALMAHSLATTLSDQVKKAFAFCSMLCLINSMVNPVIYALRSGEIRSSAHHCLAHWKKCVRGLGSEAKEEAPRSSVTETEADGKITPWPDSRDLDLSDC
UniProt P34969, whole entry: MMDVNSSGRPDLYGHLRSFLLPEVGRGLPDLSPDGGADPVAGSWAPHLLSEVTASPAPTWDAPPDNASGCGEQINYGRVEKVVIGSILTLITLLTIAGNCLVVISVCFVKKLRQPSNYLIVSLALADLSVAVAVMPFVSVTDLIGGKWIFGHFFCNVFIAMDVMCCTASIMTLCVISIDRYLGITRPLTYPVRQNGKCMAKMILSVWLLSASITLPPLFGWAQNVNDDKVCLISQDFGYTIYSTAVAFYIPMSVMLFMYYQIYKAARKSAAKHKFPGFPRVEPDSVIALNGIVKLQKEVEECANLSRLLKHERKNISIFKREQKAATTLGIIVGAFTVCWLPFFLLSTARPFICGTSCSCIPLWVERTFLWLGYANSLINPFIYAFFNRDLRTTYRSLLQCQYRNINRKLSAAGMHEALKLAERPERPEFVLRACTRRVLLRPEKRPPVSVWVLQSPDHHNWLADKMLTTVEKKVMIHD
UniProt P07550, whole entry: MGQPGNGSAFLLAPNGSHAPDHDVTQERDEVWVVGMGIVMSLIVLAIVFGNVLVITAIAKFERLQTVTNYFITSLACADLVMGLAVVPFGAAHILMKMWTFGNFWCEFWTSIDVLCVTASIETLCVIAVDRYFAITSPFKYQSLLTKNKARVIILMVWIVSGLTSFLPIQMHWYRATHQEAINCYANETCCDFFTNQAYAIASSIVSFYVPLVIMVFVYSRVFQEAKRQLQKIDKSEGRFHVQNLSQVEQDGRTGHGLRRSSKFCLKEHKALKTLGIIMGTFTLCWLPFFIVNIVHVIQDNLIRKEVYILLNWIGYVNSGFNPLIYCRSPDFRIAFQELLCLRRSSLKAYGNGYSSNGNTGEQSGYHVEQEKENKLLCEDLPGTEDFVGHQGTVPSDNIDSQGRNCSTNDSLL
UniProt P08908, whole entry: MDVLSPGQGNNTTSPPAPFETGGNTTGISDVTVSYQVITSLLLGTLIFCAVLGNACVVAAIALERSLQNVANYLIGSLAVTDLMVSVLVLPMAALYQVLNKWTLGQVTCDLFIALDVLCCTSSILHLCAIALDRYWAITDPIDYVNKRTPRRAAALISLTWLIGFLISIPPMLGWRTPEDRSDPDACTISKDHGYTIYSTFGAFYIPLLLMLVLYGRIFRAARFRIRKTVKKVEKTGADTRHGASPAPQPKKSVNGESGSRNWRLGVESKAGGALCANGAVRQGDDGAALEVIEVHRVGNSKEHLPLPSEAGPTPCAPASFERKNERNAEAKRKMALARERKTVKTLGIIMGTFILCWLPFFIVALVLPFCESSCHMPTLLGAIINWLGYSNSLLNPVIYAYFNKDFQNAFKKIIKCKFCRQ

What was measured:
Mu-type opioid receptor = Mu-type opioid receptor (Homo sapiens, UniProt P35372); test: Agonist activity at mu-opioid receptor (unknown origin) expressed in CHO cells assessed as inhibition of intracellular cAMP production measured after 45 mins by HTRF-based assay
[1] = target: Sigma non-opioid intracellular receptor 1 (Cavia porcellus, UniProt Q60492); test: Displacement of [3H]-pentazocine from sigma1 receptor in guinea pig brain membrane by radioligand binding assay
[2] = Toxicity in sc dosed ICR mouse assessed as inhibition of GI transit at 1.5X analgesic ED50 dose measured after 30 mins; details: in vivo, 0.5 h
[3] = Half life in ICR mouse at 10 mg/kg, sc measured for 24 hrs by LC-MS/MS analysis; details: in vivo
Cytochrome P450 2C9 = Cytochrome P450 2C9 (Homo sapiens, UniProt P11712); test: Inhibition of human CYP2C9 using diclofenac as substrate at 10 uM by LC-MS/MS analysis
Cytochrome P450 3A4 = Cytochrome P450 3A4 (Homo sapiens, UniProt P08684); test: Inhibition of human CYP3A4 using testosterone as substrate at 10 uM by LC-MS/MS analysis
Histamine H1 receptor = Histamine H1 receptor (Homo sapiens, UniProt P35367); test: Agonist activity at H1 receptor (unknown origin) expressed in HEK cells assessed as inositol phosphate accumulation by AlphaLISA assay
[4] = target: 5-hydroxytryptamine receptor 2B (Homo sapiens, UniProt P41595); test: Agonist activity at 5-HT2B receptor (unknown origin) expressed in CHO cells assessed as inositol phosphate accumulation by AlphaLISA assay
[5] = target: Alpha-1A adrenergic receptor (Homo sapiens, UniProt P35348); test: Agonist activity at alpha1A receptor (unknown origin) expressed in HEK cells assessed as inositol phosphate accumulation by AlphaLISA assay
[6] = target: Alpha-2A adrenergic receptor (Homo sapiens, UniProt P08913); test: Agonist activity at alpha2A receptor (unknown origin) expressed in HEK cells assessed as inositol phosphate accumulation by AlphaLISA assay
D(1A) dopamine receptor = D(1A) dopamine receptor (Homo sapiens, UniProt P21728); test: Agonist activity at D1 receptor (unknown origin) expressed in CHO cells assessed as inhibition of intracellular cAMP production measured after 45 mins by HTRF-based assay
Histamine H2 receptor = Histamine H2 receptor (Homo sapiens, UniProt P25021); test: Agonist activity at H2 receptor (unknown origin) expressed in CHO cells assessed as inhibition of intracellular cAMP production measured after 45 mins by HTRF-based assay
Cannabinoid receptor 1 = Cannabinoid receptor 1 (Homo sapiens, UniProt P21554); test: Agonist activity at CB1 receptor (unknown origin) expressed in CHO cells assessed as inhibition of intracellular cAMP production measured after 45 mins by HTRF-based assay
Cannabinoid receptor 2 = Cannabinoid receptor 2 (Homo sapiens, UniProt P34972); test: Agonist activity at CB2 receptor (unknown origin) expressed in CHO cells assessed as inhibition of intracellular cAMP production measured after 45 mins by HTRF-based assay
[7] = target: 5-hydroxytryptamine receptor 7 (Homo sapiens, UniProt P34969); test: Agonist activity at 5-HT7 receptor (unknown origin) expressed in CHO cells assessed as inhibition of intracellular cAMP production measured after 45 mins by HTRF-based assay
[8] = target: Beta-2 adrenergic receptor (Homo sapiens, UniProt P07550); test: Agonist activity at beta2 receptor (unknown origin) expressed in CHO cells assessed as inhibition of intracellular cAMP production measured after 45 mins by HTRF-based assay
[9] = target: 5-hydroxytryptamine receptor 1A (Homo sapiens, UniProt P08908); test: Agonist activity at 5-HT1A receptor (unknown origin) expressed in CHO cells assessed as inhibition of intracellular cAMP production measured after 45 mins by HTRF-based assay

## CC(CN(C(=O)c1ccco1)c1ccccn1)N1CCN(c2ccccc2)CC1 (configuration not stated)
Mu-type opioid receptor
  EC50: > 1000 nM

## CCC(=O)N(CC(C)N1CCN(c2ccccc2)CC1)c1ccccn1 (configuration not stated)
[1]
  Ki: 8.3 µM
[2]
  Activity: Non-Toxic

## CCC(=O)N(CC(CC)N1CCC(c2ccccc2)CC1)c1ccccn1 (configuration not stated)
[3]
  t1/2: 54.6 min
Cytochrome P450 2C9
  inhibition (INH): -0.35%
Cytochrome P450 3A4
  inhibition (INH): 5.57%
Histamine H1 receptor
  EC50: > 1000 nM
[4]
  EC50: > 1000 nM
[5]
  EC50: > 1000 nM
[6]
  EC50: > 1000 nM
D(1A) dopamine receptor
  EC50: > 1000 nM
Histamine H2 receptor
  EC50: > 1000 nM
Cannabinoid receptor 1
  EC50: > 1000 nM
Cannabinoid receptor 2
  EC50: > 1000 nM
[7]
  EC50: > 1000 nM
[8]
  EC50: > 1000 nM
[9]
  EC50: > 1000 nM

## CC(CN(C(=O)c1cccs1)c1ccccn1)N1CCN(c2ccccc2)CC1 (configuration not stated)
Mu-type opioid receptor
  EC50: > 1000 nM

## Cc1ccc(N2CCN(C(C)CN(C(=O)c3ccco3)c3ccccn3)CC2)cc1 (configuration not stated)
Mu-type opioid receptor
  EC50: > 1000 nM

## CCC(=O)N(CCN1CCN(C(=O)c2ccccc2)CC1)c1ccccn1
Mu-type opioid receptor
  EC50: > 1000 nM

## CC(=O)N(CC(C)N1CCN(c2ccccc2)CC1)c1ccccn1 (configuration not stated)
Mu-type opioid receptor
  EC50: > 1000 nM

## CCC(=O)N(CC(C)(C)N1CCN(c2ccccc2)CC1)c1ccccn1
Mu-type opioid receptor
  EC50: > 1000 nM
